Bioassay records (PubChem)
Only some compounds are listed: those with a hit (about 2.3% of all), similar ones and a draw of the others.
MC4R antagonist = blocks human MC4R cAMP signaling; P32245; MC4R-expressing cells, MTII-stimulated cAMP, LANCE TR-FRET; inhibition, % at 6.5 µM; 360,000 tested, 0.48% active; AID 540295;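 active = inhibition above its plate's cutoff, the mean of tested wells on that plate plus 3 SD, cut at about 29% in these data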;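 note: 0% = Melanotan II alone and 100% = Melanotan II plus saturating MCL0020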
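System: U2OS cells stably expressing human melanocortin 4 receptor (MC4R). Reagent: Melanotan II challenge after compound preincubation. Doses: 6.5 µM. Times: 30-min compound, 1-h challenge, 1-h detection, room temperature. Measured by: TR-FRET with Eu-cAMP and labeled anti-cAMP, 671 nm. Replicates: singlicate.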
MC4R ag barr = agonists of human melanocortin 4 receptor (MC4R) beta-arrestin; P32245; 360,000 tested, 0.98% active; activation, % at 8.9 µM; U2OS MC4R beta-arrestin complementation, luminescence; percent of melanotan II response, DMSO zero;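 active = activation above a per-plate cutoff, the mean activation of sample wells on that plate plus 3 SD, cut at about 8% in these data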
ARFGAP1 inh = rat ARFGAP1 inhibition; Q62848; Arfgap1-stimulated ARF1 GTP hydrolysis, GDP FP detection; inhibition, % at 16.5 µM; 360,000 tested, 0.26% active;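 active = inhibition above a per-plate limit, mean inhibition of low control wells plus 3 SD, cut at about 25% in these data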;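 note: 0% = DMSO wells with enzyme and 100% = wells lacking Arfgap1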
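Replicates: Single well per compound | Assay system: Truncated rat Arfgap1 GAP domain | Control set: No-Arfgap1 wells (100%) versus DMSO full-reaction wells (0%) | Times: Enzyme reaction 120 min at 25 °C after 20 min preincubation | Reagent: Human ARF1(Δ1-17)-GTP substrate | Measured by: Tracer-displacement fluorescence polarization with EDTA stop, 620/688 nm | Measure: Percent inhibition of Arfgap1-stimulated GTP hydrolysis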
NRP1-CendR mod = NRP-1/CendR interaction modulation; FAM-RPARPAR peptide binding to NRP-1, fluorescence polarization; inhibition, % at 25 µM; AID 602438; 360,000 tested, 0.85% active;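 active = inhibition or corrected inhibition above about 18%, plus a signal ratio from 0.5 to 1.5, limit read from the data, passing the limit was not always enough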
Yeast UUG start = alters start codon recognition fidelity in yeast. 350,000 tested, 0.13% active. activity score, % at 18.7 µM. S. cerevisiae UUG-firefly luciferase reporter, luminescence/redox ratio;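 active = replicate mean at a twofold rise or more, about +100% in these data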;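 also: firefly luciferase made from a UUG start codon reports start codon fidelity; reporter light over untreated wells divided by growth signal over untreated wells; some hits fall short of that in this replicate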
ASAP1 GAP inh = blocks human ASAP1-stimulated Arf1 GTP hydrolysis. GDP FP detection. inhibition, % at 16.5 µM. 360,000 tested, 0.19% active. Q9ULH1. AID 624377; in the data active = inhibition above about 25%;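 note: 0% = vehicle with enzyme and substrate and 100% = no enzyme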
MC4R barr conf = human MC4R beta-arrestin agonism confirmation. 2,400 tested, 31% active. activation, % at 8.9 µM. U2OS MC4R beta-arrestin recruitment, luminescence; scaled DMSO 0%, Melanotan II 100%. shares compounds with MC4R ag barr. AID 602192;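 active = mean activation across replicates above the hit cutoff set in the earlier primary screen, cut at about 8% in these data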
MOR-DOR barr ag = OPRM1-OPRD1 heterodimer agonism counter-screen. activation, % at 9.2 µM. AID 602194. U2OS PathHunter beta-arrestin, beta-gal luminescence; percent of deltorphin B response, DMSO zero. 2,400 tested, 5.8% active. shares compounds with MC4R ag barr;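 active = mean activation across replicates exceeds the hit threshold derived in the earlier primary screen, cut at about 18% in these data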;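 note: 100% = deltorphin B at 0.9 µM final and 0% = DMSO alone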
* hit, by the source's call.

Screening COc1ccc(S(=O)(=O)N(C)CC(=O)Nc2ccc(C(F)(F)F)cc2)cc1Cl returned MC4R antagonist 4.0, MC4R ag barr 16.7*, ARFGAP1 inh -10.7, NRP1-CendR mod -3.1, Yeast UUG start 1.9, ASAP1 GAP inh 19.8, MC4R barr conf 4.5 and MOR-DOR barr ag 8.2.
COCC#Cc1cnc2c(c1)C(=O)N([C@H](C)CO)C[C@@H](C)[C@H](CN(C)Cc1ccc(F)cc1)O2 was read as Yeast UUG start -11.0.
Screening Cc1cccc(C)c1NC(=O)Cn1c(=O)c2cccn2c2ccccc21 returned MC4R antagonist 3.8, MC4R ag barr 0.0, ARFGAP1 inh 15.7, NRP1-CendR mod -26.7, Yeast UUG start -4.8 and ASAP1 GAP inh 19.4.
CCc1cccc(NC(=O)Cn2c(=O)c3cccn3c3ccccc32)c1 was read as MC4R antagonist -3.2, MC4R ag barr 10.8*, ARFGAP1 inh 3.3, NRP1-CendR mod 5.3, Yeast UUG start -17.8, ASAP1 GAP inh -7.0, MC4R barr conf 5.1 and MOR-DOR barr ag 7.9.
O=C(COC(=O)c1cc[n+]([O-])cc1)Nc1ccc(SC(F)F)cc1 was read as MC4R antagonist 3.0, MC4R ag barr 2.0, ARFGAP1 inh 14.2, NRP1-CendR mod 5.3, Yeast UUG start 0.4 and ASAP1 GAP inh -2.6.
`CCOc1ccc(C(=O)OCC(=O)Nc2ccc(SC(F)F)cc2)cc1OCC` gave MC4R antagonist 2.0, MC4R ag barr 19.0*, ARFGAP1 inh 20.7, NRP1-CendR mod -5.5, Yeast UUG start -6.6, ASAP1 GAP inh 10.9, MC4R barr conf 2.7 and MOR-DOR barr ag 4.7.
Cc1ccc(C2=Nc3ccccc3N=C(c3ccco3)C2)c(O)c1 was read as MC4R antagonist 6.5, MC4R ag barr 16.8*, ARFGAP1 inh -8.1, NRP1-CendR mod -9.7, Yeast UUG start -19.4, ASAP1 GAP inh -2.3, MC4R barr conf 3.7 and MOR-DOR barr ag 3.4.
`Cc1ccc(O)c(C2=Nc3ccccc3N=C(c3ccco3)C2)c1` gave MC4R antagonist 0.5, MC4R ag barr 2.8, ARFGAP1 inh 5.5, NRP1-CendR mod 2.0, Yeast UUG start -1.6 and ASAP1 GAP inh -12.9.
`Cn1cc(/C=C2\SC(=O)N(c3ccccc3)C2=O)c2ccccc21` gave MC4R antagonist -2.7, MC4R ag barr 14.8*, ARFGAP1 inh -6.5, NRP1-CendR mod -23.2, Yeast UUG start -4.6, ASAP1 GAP inh 16.0, MC4R barr conf -1.4 and MOR-DOR barr ag 2.3.
Screening O=C(Nc1cccc(Cl)c1Cl)c1ccc(-c2ccccc2)cc1 returned MC4R antagonist -0.9, MC4R ag barr 4.4, ARFGAP1 inh -9.7, NRP1-CendR mod -0.3 and ASAP1 GAP inh -1.8.
Screening O=C(Nc1cc(Cl)ccc1Cl)c1ccc(-c2ccccc2)cc1 returned MC4R antagonist -6.8, MC4R ag barr 9.8*, ARFGAP1 inh 6.0, NRP1-CendR mod -5.9, ASAP1 GAP inh -1.9, MC4R barr conf 5.3 and MOR-DOR barr ag 8.5.
Screening O=C(CCCOC(=O)c1cccnc1Cl)c1ccc(Br)cc1 returned MC4R antagonist 2.9, MC4R ag barr 0.1, ARFGAP1 inh 8.1, NRP1-CendR mod 7.7, Yeast UUG start -11.7 and ASAP1 GAP inh -6.2.
For O=C(CCCOC(=O)c1ccc(O)cc1O)c1ccc(Br)cc1 the results were MC4R antagonist 5.5, MC4R ag barr 10.5*, ARFGAP1 inh -4.7, NRP1-CendR mod -3.6, Yeast UUG start -7.3, ASAP1 GAP inh -7.5, MC4R barr conf 8.7* and MOR-DOR barr ag 6.6.
For Cc1nc(NC(=O)COc2ccccc2)sc1C(=O)Nc1cccc(Cl)c1 the results were MC4R antagonist 4.6, MC4R ag barr 4.9, ARFGAP1 inh -3.8, NRP1-CendR mod 4.1, Yeast UUG start -11.6 and ASAP1 GAP inh 9.5.

In the list so far, these have bromine.
Screening O=C(CCCOC(=O)c1cccnc1Cl)c1ccc(Br)cc1 returned MC4R antagonist 2.9, MC4R ag barr 0.1, ARFGAP1 inh 8.1, NRP1-CendR mod 7.7, Yeast UUG start -11.7 and ASAP1 GAP inh -6.2.
For O=C(CCCOC(=O)c1ccc(O)cc1O)c1ccc(Br)cc1 the results were MC4R antagonist 5.5, MC4R ag barr 10.5*, ARFGAP1 inh -4.7, NRP1-CendR mod -3.6, Yeast UUG start -7.3, ASAP1 GAP inh -7.5, MC4R barr conf 8.7* and MOR-DOR barr ag 6.6.
